Source: PubChem BioAssay AID1046 (PCMD, 2008)
The entries are a selection whose mix differs from that of the whole data set. Activity calls are given as the source filed them.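 Rule for the calls: active = inhibition at or above 40%; inactive = inhibition below 40%.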

target: Prothrombin (Homo sapiens) (UniProt P00734); experiment: human alpha-thrombin inhibitors, primary screen, counter-screen for coagulation protease inhibitor project, biochemical, 1536-well, fluorogenic AMC substrate (AID 1046); settings: Boc-VPR-AMC fluorogenic substrate cleavage, at 5 µM, hits give high values;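 note: 0% = enzyme with no compound and 100% = wells without enzyme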

SMILES | inhibition
COP1(=S)c2c(C)nn(CCC#N)c2N=C(c2ccc(F)cc2)N1C (configuration not stated) | inactive: -7.71%
O=C(COc1ccccc1)OC1CN2CCC1CC2 (configuration not stated) | inactive: -4.08%
CCOC(=O)c1ccc(NC(=O)C(C)(CCl)SC)cc1 (configuration not stated) | inactive: -3.78%
CCC(C)N(CC(C)C)C(=S)SC(NC(C)=O)C(Cl)(Cl)Cl (configuration not stated) | inactive: 3.43%
CCOC(=O)Nc1ccc([As](=O)(O)O)c(O)c1 | inactive: -2.07%
Cc1cc(SC(NC(=O)c2ccccc2)C(Cl)(Cl)Cl)nc(C(C)C)n1 (configuration not stated) | inactive: -0.41%
CCOC(=O)Nc1cccc([As](=O)(O)O)c1 | inactive: -6.94%
O=[N+]([O-])c1ccc(Nc2ccc(Oc3ccc([N+](=O)[O-])cc3[N+](=O)[O-])cc2)c([N+](=O)[O-])c1 | inactive: -2.14%
Cc1cc(SC(NC=O)C(Cl)(Cl)Cl)ncn1 (configuration not stated) | inactive: 0.39%
O=P(Nc1ccccn1)(c1cccc2ccccc12)c1cccc2ccccc12 | inactive: 0.28%
O=[As](O)(c1ccc(O)cc1)c1ccccc1O | inactive: -3.12%
C[As](=O)(O)c1cccc(C(=O)O)c1 | inactive: 1.87%
Cc1ccc2nc3c(c(C)c2c1)CC(C(Cl)Cl)S3 (configuration not stated) | inactive: -9.19%
CC(Cc1ccc(O)cc1)NCC(O)c1cc(O)cc(O)c1 (configuration not stated) | inactive: 3.11%
Cc1ccc(OP(=O)(Nc2ccc([N+](=O)[O-])cn2)Oc2ccc(C)cc2)cc1 | inactive: -2.75%
CC(C)c1ccc(OP(=O)(Nc2ccccn2)Oc2ccccc2F)cc1 (configuration not stated) | inactive: -5.96%
ClCCSc1nnc(-c2cccnc2)o1 | inactive: 1.37%
O=[N+]([O-])c1cc([N+](=O)[O-])c(-c2ccn[nH]2)s1 | inactive: -2.14%
CC(C)NC(=O)NP(=O)(Oc1ccccc1)Oc1ccccc1 | inactive: -2.16%
CCN(CC)C(=S)SC(NC=O)C(Cl)(Cl)Cl (configuration not stated) | inactive: -0.3%
Cc1cc(=O)[nH]c(N[N+](=O)[O-])n1 | inactive: -11.7%
O=C(OC1CN2CCC1CC2)C12CC3CC(CC(C3)C1)C2 (configuration not stated) | inactive: -11.3%
Cc1c2c(nc3ccccc13)SC(C(Cl)Cl)C2 (configuration not stated) | inactive: -0.44%

SMILES | inhibition
COc1cc(I)ccc1[As](=O)(O)O | inactive: -1.51%
COc1ccc(N/C(=N/P(=O)(N2CCOCC2)N2CCOCC2)N2CCOCC2)cc1 | inactive: 1.54%
O=[As](O)(O)c1cccnc1 | inactive: -4.18%
COc1cc(C(=O)NCC2(N3CCOCC3)CCCCC2)cc(Cl)c1OC(C)C | inactive: -5.68%
O=C(OC1CN2CCC1CC2)c1ccc(Cl)cc1 (configuration not stated) | inactive: -2.7%
Cc1cccc(OCC(=O)OC2CN3CCC2CC3)c1 (configuration not stated) | inactive: 3.55%
O=[As](O)(c1cccc(O)c1)c1cccc(O)c1 | inactive: -5.6%
CCCOP(=S)(Nc1nc(N)cc(=O)[nH]1)OCCC | inactive: -1.24%
Cc1ccc(NCCc2c([N+](=O)[O-])cc([N+](=O)[O-])cc2[N+](=O)[O-])cc1 | inactive: -0.58%
Nc1cccc2c([As](=O)(O)O)cccc12 | inactive: -4.79%
CCOP(=O)(Nc1cccc2ccccc12)OCC | inactive: -1.67%
COc1cc(C2NCCC3(OCCO3)C2(C)C)cc(OC)c1OC (configuration not stated) | inactive: 0%
CS(=O)(=O)c1cc([N+](=O)[O-])c2no[n+]([O-])c2c1 | inactive: 1.22%
O=P(Nc1nccs1)(Oc1ccccc1)Oc1ccccc1 | inactive: 4.59%
O=P(Nc1nccs1)(c1ccccc1)c1nc2ccccc2s1 (configuration not stated) | inactive: 1.26%
CCOP1(=S)c2c(C)nn(CCC#N)c2N=C(c2ccccc2F)N1C (configuration not stated) | inactive: -7.64%
O=C(O)COc1ccc([As](=O)(O)O)cc1[N+](=O)[O-] | inactive: -3.28%
Nc1ccccc1[As](=O)(O)c1ccccc1 | inactive: -3%
NC(=O)Nc1ccc([As](=O)(O)O)cc1 | inactive: 0.16%
O=[N+]([O-])c1ccc2c(c1)nnn2O | inactive: 1.55%
CCOP1(=S)c2c(C)nn(CCC#N)c2N=C(c2ccc(F)cc2)N1C (configuration not stated) | inactive: -11.3%
CN(C(=O)Cc1ccccc1)[C@@H]1CC[C@]2(CCCO2)C[C@H]1N1CCCC1 | inactive: 2.48%
CC1CCC(C(C)C)C(OP(=O)(Nc2ccccn2)c2ccccc2)C1 (configuration not stated) | inactive: 1.35%

SMILES | inhibition
Cc1nn(-c2ccccc2)c2c1P(=O)(N1CCOCC1)N(C)C(c1ccccc1)=N2 (configuration not stated) | inactive: -3.87%
O=C(/C=C/c1ccccc1)OC1CN2CCC1CC2 (configuration not stated) | inactive: 0.16%
CN(C)C1(CNC(=O)c2ccc(S(C)(=O)=O)cc2)CCCCC1 | inactive: -5.7%
O=P1(Nc2ncccn2)COc2ccccc2OC1 | inactive: -8.03%
Cc1ccc(OCC(=O)OC2CN3CCC2CC3)cc1 (configuration not stated) | inactive: -11.6%
O=[As](O)(c1cccs1)c1cccs1 | inactive: 0.95%
O=P1(Nc2ccc(Br)cn2)COc2ccccc2OC1 | inactive: -0.95%
Nc1cccc([As](=O)(O)c2ccccc2)c1 | inactive: 1.91%
CCOP(=O)(Nc1ccc(C)cn1)OCC | inactive: 0.12%
O=P1(Nc2ccccn2)COc2ccccc2OC1 | inactive: -8.84%
CC(C)(C)C(=O)NC(Sc1ncccn1)C(Cl)(Cl)Cl (configuration not stated) | inactive: -2.14%
Clc1n[nH]nc1-c1nn[nH][15n]1 | inactive: -2.21%
O=[As](O)(c1ccccc1Br)c1ccccc1Br | inactive: -3.48%
CC(C)/C=N\N=C(\N)N[N+](=O)[O-] | inactive: 4.78%
O=P(Nc1nccs1)(c1ccccc1)c1ccccc1 | inactive: -6.48%
CC(C)C(=O)NC(Sc1ccccc1)C(Cl)(Cl)Cl (configuration not stated) | inactive: -5.49%
c1nnnn1CCn1cnnn1 | inactive: -4.93%
O=P(Nc1ccccn1)(c1ccc(Br)cc1)c1ccc(Br)cc1 | inactive: -2.6%
C[C@H]1OP(=O)(Oc2ccccc2)[C@H](O)[C@H](O)[C@H]1N=[N+]=[N-] (some centres not stated) | inactive: 1.66%
O=P(Nc1nc2ccccc2s1)(c1ccccc1)c1ccccc1 | inactive: -13.5%
CC(=O)NC(SC(=S)N(C)C)C(Cl)(Cl)Cl (configuration not stated) | inactive: -2.03%
